Measured values from US20260382729A1, “HETEROBIFUNCTIONAL COMPOUNDS AS p53 ACETYLATORS” (published 2026).

System: p53K382ac level in NUGC-3 cells
Test: p53K382ac level, Western blot, NUGC-3
Conditions: 10 μM, 24 h
Text: Right: quantification of the normalized p53K382ac level in BxPC3 cells from three independent experiments. *P<0.05, **P<0.01, ***P<0.001. […] . GraphPad Prism 8 was used in analysis of raw data. […] . Cells were fixed and stained with crystal violet and the images are representative of two independent experiments. […] . Total cell lysate was used for western blots, as previously described.^47 The following primary antibodies were used in the study: Vinculin (Cell Signaling Technology [CST], 13901), p53 (CST, 2527), acetyl-p53 (lys-382) (CST, 2525), acetyl-p53 (lys-379) (CST, 2570), p21 (CST, 2947), p300 (CST, 86377), p53 polyclonal antibody (Proteintech, 10442-1-AP). Blots were imaged using fluorescence-labeled secondary antibodies on LI-COR Odyssey CLx Imaging Systems.

## CCn1c2ccc(CNCCOCCOCCOCCn3cc(COc4ccc(CCc5nc6cc(-c7c(C)noc7C)ccc6n5CCN5CCOCC5)cc4F)nn3)cc2c2ccc(-c3cc(C)cs3)cc21
  increase in the p53K382ac level: about 4 fold
